The text below walks through data of US20070225492A1 (priority 2004, published 2007).

By UniProt entry, the sequences of proteins in these tests, tags left out.
UniProt P42866, whole entry: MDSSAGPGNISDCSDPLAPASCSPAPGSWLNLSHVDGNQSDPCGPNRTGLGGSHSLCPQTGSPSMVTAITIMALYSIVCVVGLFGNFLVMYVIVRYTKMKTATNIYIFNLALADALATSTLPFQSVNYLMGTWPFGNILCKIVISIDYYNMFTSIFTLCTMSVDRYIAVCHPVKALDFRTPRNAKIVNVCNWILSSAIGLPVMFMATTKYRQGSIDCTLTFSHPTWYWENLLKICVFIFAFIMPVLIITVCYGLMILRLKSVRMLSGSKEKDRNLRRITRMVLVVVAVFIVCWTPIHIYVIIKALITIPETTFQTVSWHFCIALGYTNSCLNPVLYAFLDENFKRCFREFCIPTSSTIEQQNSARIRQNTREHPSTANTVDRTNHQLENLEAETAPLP
UniProt P33534, whole entry: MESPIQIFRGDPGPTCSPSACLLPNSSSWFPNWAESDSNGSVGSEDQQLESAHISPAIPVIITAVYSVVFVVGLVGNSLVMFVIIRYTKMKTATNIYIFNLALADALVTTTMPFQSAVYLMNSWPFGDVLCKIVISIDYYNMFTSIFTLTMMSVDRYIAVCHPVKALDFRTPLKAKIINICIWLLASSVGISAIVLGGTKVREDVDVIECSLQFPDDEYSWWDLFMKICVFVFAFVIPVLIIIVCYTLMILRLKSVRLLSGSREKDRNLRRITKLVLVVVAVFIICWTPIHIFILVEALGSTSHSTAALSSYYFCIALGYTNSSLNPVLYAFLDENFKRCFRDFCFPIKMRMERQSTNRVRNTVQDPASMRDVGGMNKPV

For one assay, the target named is μ receptors (Mus musculus, UniProt P42866). The assay can be described thus: opioid receptor binding in mouse brain homogenate, [3H]-DAMGO. The following applies: read-out: Affinity Ki towards opioid receptors, μ, mean ± SEM, n=3.
For another assay, the target named is δ receptors (Mus musculus, UniProt P32300). The assay can be described thus: opioid receptor binding in mouse brain homogenate, [3H]-Deltorphina. The note with it: read-out: Affinity Ki towards opioid receptors, δ, mean ± SEM, n=3.
In the next assay the target is κ receptors (Mus musculus, UniProt P33534). The assay can be described thus: opioid receptor binding in mouse brain homogenate, [3H]-U69593. The note with it: read-out: Affinity Ki towards opioid receptors, κ, [3H]-U69593, mean ± SEM, n=3.

Where a name gives a salt, the structure may show the parent alone. A value given as a limit tells only on which side of the number the result lay.

As to `CCC(=O)N1CC2CC(C1)N2C/C=C(\CC)c1ccccc1` (as salt: hydrochloride), the figures for the Ki on μ receptors, on δ receptors and at κ receptors were 384 nM, over 5000 nM and over 5000 nM, respectively.
On to `CCC(=O)N1CC2CC(C1)N2C/C=C(\C)c1ccccc1` (as salt: hydrochloride), for which the Ki is 178 nM at μ receptors, over 5000 nM on δ receptors and over 5000 nM at κ receptors.
